Measurements published in patent publication US20060009478A1, “Methods for the treatment of back pain” (priority 2003, published 2006).

Tested on: patients with moderate to severe chronic pain due to osteoarthritis of the hip or knee
Details: Week 3; 40 mg OXY/d

Structure (SMILES): COc1ccc2c3c1O[C@H]1C(=O)CC[C@@]4(O)[C@@H](C2)N(C)CC[C@]314 [OXY QID, oxycodone]
- Adverse event Nausea, % of patients: 10.7%
